Test results reported in ChEMBL document CHEMBL1130062 (J Med Chem, 1997).

The compounds below were run against T1, Dihydrofolate reductase (Pneumocystis carinii, UniProt P16184).
T1 sequence (P16184 whole entry): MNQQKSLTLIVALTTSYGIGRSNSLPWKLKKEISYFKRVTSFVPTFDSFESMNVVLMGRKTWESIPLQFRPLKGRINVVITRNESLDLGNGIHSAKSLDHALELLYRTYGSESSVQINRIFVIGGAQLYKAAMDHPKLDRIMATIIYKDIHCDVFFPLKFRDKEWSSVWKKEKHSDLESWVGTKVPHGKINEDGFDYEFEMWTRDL
`CCc1nc(N)nc(N)c1-c1ccc(Cl)c(/N=N/N2CCOCC2)c1` gave an IC50 of 1.7 µM. `CCc1nc(N)nc(N)c1-c1ccc(Cl)c(N/N=N\C)c1` showed an IC50 of 4.6 µM. `CCc1nc(N)nc(N)c1-c1ccc(Cl)c(/N=N/N(C)CCN(CC)CC)c1` showed an IC50 of 18.2 µM. Compound `CCc1nc(N)nc(N)c1-c1ccc(Cl)c(/N=N/N(CCOC)CCOC)c1` has an IC50 of 0.91 µM.
